US20040242503A1, “Compositions comprising blockers of l-dopa renal cell transfer for the treatment of parkinson's disease” (priority 2000, published 2004)

Tests used:
LLC-PK1 cells = assay: Apical uptake of L-DOPA in LLC-PK1 cells; assay type: cell-based, porcine; settings: 6 min incubation, medium concentration 0.5 μM
Protocol: Cell culture LLC-PK1 cells, a porcine-derived proximal renal tubule epithelial cell line which retains several properties of proximal tubular epithelial cells in culture (Hull, R. N., et al., 1976, In Vitro 12; 670-677), were obtained from the American Type Culture Collection (Rockville, Md.). LLC-PK1 cells (ATCC CRL 1392; passages 198-206) and were maintained in a humidified atmosphere of 5% CO2-95% air at 37° C. and grown in Medium 199 (Sigma Chemical Company, St. Louis, Mo., USA) supplemented with 100 U/ml penicillin G, 0.25 μg/ml amphotericin B, 100 μg/ml streptomycin (Sigma), 3% foetal bovine serum (Sigma) and 25 mM N-2-hydroxyethylpiperazine-N'-2-ethanesulfonic acid (HEPES; Sigma). For subculturing, the cells were dissociated with 0.05% trypsin-EDTA, split 1:4 and subcultured in Costar flasks with 75- or 162-cm^2 growth areas (Costar, Badhoevedorp, The Netherlands). […] The cell medium was changed every 2 days, and the cells reached confluence after 3-5 days of incubation. For 24 hours prior to each experiment, the cell medium was free of foetal bovine serum. […] Km and Vmax values for the uptake of L-DOPA, as determined in saturation experiments, were calculated from non-linear regression analysis using the GraphPad Prism statistics software package ([…]. Neubig. GraphPad Prism (version 1.0). San Diego, USA: GraphPad Prism Software Inc., 1994).

[1] = Levels of L-DOPA, dopamine, DOPAC and HVA in rat brain and kidney; assay type: in vivo
Protocol: Male Wistar rats weighing 170-280 g, kept two per cage under controlled environmental conditions (12 h light/dark cycle and room temperature 24° C.), were used in all experiments. […] The high pressure liquid chromatograph system consisted of a pump (Gilson model 302; Gilson Medical Electronics, […] Bel, France) connected to a manometric module (Gilson model 802 C) and a stainless-steel 5 μm ODS column (Biophase; Bioanalytical Systems, West Lafayette, Ind.) of 25 cm length; samples were injected by means of an automatic sample injector (Gilson model 231) connected to a Gilson dilutor (model 401). […] The detection was carried out electrochemically with a glassy carbon electrode, an Ag/AgCl reference electrode and an amperometric detector (Gilson model 141); the detector cell was operated at 0.75 V. The current produced was monitored using the Gilson 712 HPLC software.

[2] = kidney, L-DOPA 12 mg/kg alone, 60 min

SMILES	cell concentration of L-DOPA relative to medium concentration (LLC-PK1 cells) [times]	DOPAC level [1, 2] [ng/g]	HVA level [1, 2] [ng/g]	L-DOPA level [1, 2] [ng/g]	DA level ([1]; brain, R 1.0 mg/kg 30 min before L 12 mg/kg + B 3 mg/kg, 60 min after L + B) [ng/g]
N[C@@H](Cc1ccc(O)c(O)c1)C(=O)O [L-DOPA, L-3,4-dihydroxyphenylalanine]	8.0±0.8	84.3 ± 23.3	10235.5 ± 3772.9	17.4 ± 2.1	–
Oc1ccc(C=Cc2cc(O)cc(O)c2)cc1 [resveratrol]	–	–	–	–	221.9 ± 41.5
